Where two headings read alike, the source gives them in different places.
Key:
[1] = system: A/WSN/33 (H1N1) influenza virus; settings: mouse, in vivo, po; for survival and body weight of infected mice: 10 mg/kg/day; for protection of infected mice: 0.1 mg/kg/day
[2] = system: influenza A/CA/04/2009 (H1N1) virus; settings: mouse, in vivo, po; for protection of infected mice: 0.1 mg/kg/day

SMILES | survival and body weight of infected mice [1] | protection of infected mice [2] | body weight recovery ([2]; 1 mg/kg) | body weight recovery ([2]; 10 mg/kg) | protection of infected mice [1] | protection activity in mice survival ([1]; 1 mg/kg/day)
CCC(CC)O[C@@H]1C=C(P(=O)(O)O)C[C@H](NC(=N)N)[C@H]1NC(C)=O [4a, guanidino-tamiphosphor] | the mice survived | no significant protection | not observed | slow and slight | – | –
CCC(CC)O[C@@H]1C=C(P(=O)(O)O)C[C@H](N)[C@H]1NC(C)=O [3a, tamiphosphor] | the mice survived | – | – | – | – | –
CCOP(=O)(O)C1=C[C@@H](OC(CC)CC)[C@H](NC(C)=O)[C@@H](N)C1 | the mice survived | – | – | – | partial protection | –
CCOP(=O)(O)C1=C[C@@H](OC(CC)CC)[C@H](NC(C)=O)[C@@H](NC(=N)N)C1 | the mice survived | no significant protection | not observed | slow and slight | partial protection | better protection activity in mice survival than other compounds
